Measurements reported in PMC7154053, “Chemical, Metabolic, and Cellular Characterization of a FtsZ Inhibitor Effective Against Burkholderia cenocepacia” (Frontiers in Microbiology, 2020).

Target: T1, FCF19-FtsZ (Burkholderia cenocepacia, UniProt B4E5Y7, A348P/P347Q/Q349H)
T1 sequence (B4E5Y7 1-398 P347Q/A348P/Q349H): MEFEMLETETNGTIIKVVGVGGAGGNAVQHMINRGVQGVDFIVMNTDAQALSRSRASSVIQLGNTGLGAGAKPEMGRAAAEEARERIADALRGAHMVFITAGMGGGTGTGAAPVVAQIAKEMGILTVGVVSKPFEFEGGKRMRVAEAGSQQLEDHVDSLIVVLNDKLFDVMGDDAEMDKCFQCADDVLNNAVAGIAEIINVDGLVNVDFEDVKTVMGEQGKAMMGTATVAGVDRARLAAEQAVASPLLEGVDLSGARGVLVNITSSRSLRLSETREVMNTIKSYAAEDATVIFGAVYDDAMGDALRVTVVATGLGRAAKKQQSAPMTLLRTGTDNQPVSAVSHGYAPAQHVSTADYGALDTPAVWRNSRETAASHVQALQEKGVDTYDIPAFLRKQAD
Assay: FtsZ GTPase activity assay (kinetics and inhibition)
Format: biochemical

SMILES: COC(=O)CSc1ccc2nsnc2c1[N+](=O)[O-] [C109, methyl [(4-nitro-2,1,3-benzothiadiazol-5-yl)thio]acetate]
- IC50: 8.8 ± 1.6 µM
